Experiment: Soluble concentration of nitroglycerin measured by HPLC
Excerpt: The resultant suspension was centrifuged and the supernatant withdrawn to become the test article. […] The results are depicted in FIG. 1.

In the case of `O=[N+]([O-])OCC(CO[N+](=O)[O-])O[N+](=O)[O-]` [nitroglycerin], the nitroglycerin content (25 nitroglycerin tablets in 5 mL Humalog aqueous solution overnight, supernatant, HPLC) is reported as 1.2 mg/mL and the “speed of going into solution” value (in presence of PEG3350 versus its absence) is reported as “more quickly”.

Source: US20150065423A1, “RAPID ACTING INJECTABLE FORMULATIONS” (Perosphere, Inc., priority 2013, published 2015)
